According to publication PMC10443802, “Targeting a xenobiotic transporter to ameliorate vincristine-induced sensory neuropathy” (JCI Insight, 2023):

Assays:
[1] = system: mice; conditions: OATP1B2(-/-) mice + Nilotinib
[2] = target: T1, hNTCP (Homo sapiens, UniProt Q14973); test: Vincristine uptake screen, HeLa cells overexpressing hNTCP; assay type: in vitro ADME
T1 sequence (Q14973 1-349): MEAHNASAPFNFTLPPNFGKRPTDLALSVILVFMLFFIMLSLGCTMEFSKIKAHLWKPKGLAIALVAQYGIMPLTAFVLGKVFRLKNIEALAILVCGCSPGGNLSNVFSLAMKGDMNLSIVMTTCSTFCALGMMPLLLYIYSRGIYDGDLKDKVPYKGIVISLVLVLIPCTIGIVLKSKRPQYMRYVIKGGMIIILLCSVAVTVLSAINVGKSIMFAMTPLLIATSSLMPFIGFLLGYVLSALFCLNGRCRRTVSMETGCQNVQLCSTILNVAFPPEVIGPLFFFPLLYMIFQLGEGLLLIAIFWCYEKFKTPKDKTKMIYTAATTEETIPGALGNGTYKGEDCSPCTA

| SMILES | Paw withdrawal threshold (%Δ from baseline) ([1]; Day 3) [%] | Paw withdrawal threshold (%Δ from baseline) ([1]; Day 6) [%] | Vincristine uptake (% of vector control) [2] |
| --- | --- | --- | --- |
| Cc1cn(-c2cc(NC(=O)c3ccc(C)c(Nc4nccc(-c5cccnc5)n4)c3)cc(C(F)(F)F)c2)cn1 [Nilotinib, nilotinib] | 92.8 | 92.8 |  |
| CC[C@]1(O)C[C@H]2CN(CCc3c([nH]c4ccccc34)[C@@](C(=O)OC)(c3cc4c(cc3OC)N(C=O)[C@H]3[C@@](O)(C(=O)OC)[C@H](OC(C)=O)[C@]5(CC)C=CCN6CC[C@]43[C@@H]65)C2)C1 [Vincristine, vincristine] |  |  | 111.00 % of vector control and 83.00 % of vector control and 98.00 % of vector control and 116.00 % of vector control and 118.00 % of vector control and 141.00 % of vector control and 97.00 % of vector control |

Where “and” joins values, the source holds several entries; their conditions need not be identical. Equal values may be shown once. Read-outs that look alike come from different tables or passages of the source.
